Read-outs that look alike come from different tables or passages of the source.
Columns and labels:
[1] = Polymerization after lyophilization (polyacrylamide gel electrophoresis with sodium dodecylsulfate); assay type: physicochemical
[2] = mouse, in vivo, iv
[3] = tested on: receptors of the hepatocytes specific for the proteins ending with the galactose; assay: Disappearance from plasma of [14C]asialofetuine (AF) in the mouse; assay type: in vivo, mice (female Swiss); details: for radioactivity of plasma after injection with [14C]AF: 2 μg/g i.v. with 2 μg/g 14C AF, after 10 minutes, average ± S.E. from 10 mice
[4] = Solubility and molar ratio after lyophilization and storage; assay type: physicochemical; details: for solubility, conjugate stored at 0-4° C. or at room temperature: yes/no, after lyophilization
[5] = tested on: cellular DNA in the intestine; details: mouse, in vivo
[6] = Solubility of the lyophilized conjugate in physiological solution; assay type: physicochemical
[7] = tested on: cellular DNA in the medulla ossium; details: mouse, in vivo
hepatocytes = details: cited from earlier work
[8] = prior method, acidic pH 5.3-5.5, cited from earlier work
[9] = conjugate prepared with homologue albumin; mouse; cited from earlier work

For “conjugate 1: conjugate of ara-AMP with L31-HSA, ECDI, pH 7.5, 25° C., 24 hours, molar ratio 14”, the “change of percentages of L-HSA monomer and oligomers” value ([1]; 4 months after the lyophilization) was “do not change”, the polymerization after lyophilization ([1]; in words) was “does not undergo a polymerization after lyophilization” and the “curve of body weight increase and of food consumption” value [2] was “equal to that of control mice”. For the same substance, the “evident sign of toxicity” value [2] was “does not cause any evident sign of toxicity”, the “radioactivity of plasma after injection with [14C]AF” value [3] was 11,275 ± 1,194 dpm/ml of plasma and the “capacity of L-HSA of interacting with the hepatocyte receptors after conjugation with ara-AMP” value ([3]; in words) was “does not affect the capacity of L-HSA of interacting with the receptors of the hepatocytes”. For the same substance, the “molar ratio ara-AMP/L-HSA on storage” value ([4]; 0°-4° C. or room temperature, at least up to 4 months (maximum time tested)) was “do not decrease”, the “solubility, conjugate stored at 0-4° C. or at room temperature” value (shortened to “solubility, conjugate stored”) [4] was “yes” and the “inhibition of DNA synthesis in the intestine” value [5] was “without causing inhibition in the other two organs”. The “solubility in physiological solution (0.9% NaCl)” value ([6]; lyophilized conjugate, maximum tested concentration) was ≥ 100 mg/ml, the “Inhibition of the DNA synthesis % M. ossium” value [7] was 0% and the “inhibition of DNA synthesis in the medulla ossium” value [7] was “without causing inhibition in the other two organs”.

For “conjugate 13: L51-HSA, ECDI, ara-AMP 144, carbodiimide 261, pH 7.5, 25° C., 24 hours, molar ratio 12”, the “solubility, conjugate stored” value [4] was “yes”.

With “conjugate 6: L31-HSA, ECDI, ara-AMP 144, carbodiimide 261, pH 5.5, 25° C., 24 hours, molar ratio 16” the “solubility, conjugate stored” value [4] was “no”.

In the case of “L-SA: lactosaminated albumin which penetrates only in the hepatic parenchima cells”, the cell penetration (hepatocytes; in words) is given as “penetrates only in the hepatic parenchima cells”.

For “L31 -HSA: non conjugated lactosaminated human albumin [reference compound]”, the “radioactivity of plasma after injection with [14C]AF” value [3] was 9,446 ± 1,462 dpm/ml of plasma and the “inhibition of the disappearance of radioactive asialofetuine from plasma” value ([3]; in words, conjugate vs equal amount of non conjugated L31 HSA) was “competitively inhibited at the same rate”.

With “conjugate 10: L31-HSA, ECDI, ara-AMP 144, carbodiimide 261, pH 7.5, 35° C., 24 hours, molar ratio 9” the “solubility, conjugate stored” value [4] was “yes”.

With “2: conjugate of ara-AMP with L30-HSA, carbodiimide, pH 7.5, dialized against 0.3% NaCl and lyophilized with NaCl [Example 2]” the “concentration of solution of lyophilized preparation” value ([6]; 109 mg lyophilized preparation dissolved with 1 ml H2O, physiological solution (0.9% NaCl)) was 100 mg of conjugate in 1 ml and the “solubility of lyophilized preparation” value ([6]; in words, 109 mg with 1 ml H2O) was “optimum”.

With “conjugate 5: L31-HSA, MorfoCDI, ara-AMP 144, carbodiimide 261, pH 7.5, 25° C., 24 hours, molar ratio 12” the “solubility, conjugate stored” value [4] was “yes”.

For “conjugate 4: L31-HSA, ECDI, ara-AMP 144, carbodiimide 130, pH 7.5, 25° C., 24 hours, molar ratio 11”, the “solubility, conjugate stored” value [4] was “yes”.

For “conjugate 12: L20-HSA, ECDI, ara-AMP 144, carbodiimide 261, pH 7.5, 25° C., 24 hours, molar ratio 11”, the “solubility, conjugate stored” value [4] was “yes”.

In the case of “conjugate 2: L31-HSA, ECDI, ara-AMP 288, carbodiimide 522, pH 7.5, 25° C., 24 hours, molar ratio 20”, the “solubility, conjugate stored” value [4] is reported as “yes”.

With “conjugate 8: L31-HSA, ECDI, ara-AMP 144, carbodiimide 261, pH 8.5, 25° C., 24 hours, molar ratio 10” the “solubility, conjugate stored” value [4] was “yes”.

With “conjugate 11: L31-HSA, ECDI, ara-AMP 144, carbodiimide 261, pH 7.5, 25° C., 8 hours, molar ratio 11” the “solubility, conjugate stored” value [4] was “yes”.

With “conjugate 7: L31-HSA, ECDI, ara-AMP 144, carbodiimide 261, pH 6.5, 25° C., 24 hours, molar ratio 11; partially precipitates during the conjugation” the “solubility, conjugate stored” value [4] was “no”.

In the case of “conjugate 9: L31-HSA, ECDI, ara-AMP 144, carbodiimide 261, pH 9.5, 25° C., 24 hours, molar ratio 5”, the “solubility, conjugate stored” value [4] is reported as “yes”.

With “conjugate 3: L31-HSA, ECDI, ara-AMP 72, carbodiimide 130, pH 7.5, 25° C., 24 hours, molar ratio 10” the “solubility, conjugate stored” value [4] was “yes”.

For “L-SA-ara-AMP: ara AMP conjugated with lactosaminated albumin; prior method based on conjugation of activated ara-AMP in acidic environment (pH 5.3-5.5)”, the “distribution of ara-AMP after administration” value (hepatocytes; mouse, in vivo) is listed as “concentrated, in its pharmacologically active form in the hepatocytes”, the “time to become insoluble after lyophilization” value ([8]; 0° to 4° C.) is listed as “less than one” and the “time to become insoluble after lyophilization” value ([8]; -20° C., in words) is listed as “some weeks”. For the same substance, the immunogenicity [9] was “not immunogenic”.
